These results are taken from PubChem BioAssay AID743282 (The Scripps Research Institute Molecular Screening Center, 2014).

The entries are a selection whose mix differs from that of the whole data set. Activity calls are given as the source filed them.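 How the source made its calls: active means average inhibition above the solvent-only control mean plus 3 SD (cut at about 6% in these data); inactive means the rest.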

One may read the inhibition as the change of the read-out against control, counted positive when it falls.

This assay can be described thus: 535nm fluorescence optical interference, confirmation, artefact control for HGIII-sPLA2 inhibitor project, biochemical, QFRET (AID 743282).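 Further: 0% = DMSO with substrate plus product and 100% = DMSO with substrate alone.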 As to conditions: BODIPY FL product fluorescence interference, at 12.2 µM, stronger effect = higher value.
With `CCN1CCC(Nc2ccc(Cl)cc2)CC1`, the inhibition was inactive: -7.42%.
